Paper PMC7865145, “Identification of existing pharmaceuticals and herbal medicines as inhibitors of SARS-CoV-2 infection” (Proceedings of the National Academy of Sciences of the …, 2021)

Biological target: Papain-like protease (nsp3) of SARS-CoV-2 (Severe acute respiratory syndrome coronavirus 2, UniProt P0DTD1)
Assay type: biochemical

Nc1nc2nc[nH]c2c(=S)[nH]1 [Thioguanine 3, Thioguanine]
Inhibition % at 100 uM of compounds, Papain-like protease (nsp3): N.I.
